What was measured:
CRF2R = target: T1, CRF2R (Homo sapiens, UniProt Q13324); assay: CRF2R agonist activation (EC50 / Emax), called comparative CRF binding; assay type: cell-based; details: for Emax: read-out: CRF2R Emax
T1 sequence (Q13324 1-411): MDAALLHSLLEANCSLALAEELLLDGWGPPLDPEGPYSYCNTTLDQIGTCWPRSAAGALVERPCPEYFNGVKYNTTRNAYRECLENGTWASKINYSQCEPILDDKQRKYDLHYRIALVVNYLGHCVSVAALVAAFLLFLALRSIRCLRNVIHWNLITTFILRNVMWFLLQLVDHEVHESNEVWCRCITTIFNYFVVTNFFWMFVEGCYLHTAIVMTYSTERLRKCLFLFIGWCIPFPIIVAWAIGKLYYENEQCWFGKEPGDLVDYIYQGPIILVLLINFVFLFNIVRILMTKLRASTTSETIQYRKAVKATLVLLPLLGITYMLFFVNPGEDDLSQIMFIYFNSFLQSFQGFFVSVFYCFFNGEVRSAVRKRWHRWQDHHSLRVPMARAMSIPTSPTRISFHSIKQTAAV
Procedure, shortened: (§1)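 Receptor-expressing cells are contacted with test peptide or the vehicle it is dissolved in. Lysates are then assayed for cAMP, or expression of a CRE-coupled reporter is quantitated. Engineered cells carrying receptor-G-protein fusions may replace full-length receptors.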

CRF1R = target: T2, CRF1R (Homo sapiens, UniProt P34998); assay: CRF1R agonist activation (EC50 / Emax), called comparative CRF binding; assay type: cell-based; details: for Emax: read-out: CRF1R Emax
T2 sequence (P34998 24-415): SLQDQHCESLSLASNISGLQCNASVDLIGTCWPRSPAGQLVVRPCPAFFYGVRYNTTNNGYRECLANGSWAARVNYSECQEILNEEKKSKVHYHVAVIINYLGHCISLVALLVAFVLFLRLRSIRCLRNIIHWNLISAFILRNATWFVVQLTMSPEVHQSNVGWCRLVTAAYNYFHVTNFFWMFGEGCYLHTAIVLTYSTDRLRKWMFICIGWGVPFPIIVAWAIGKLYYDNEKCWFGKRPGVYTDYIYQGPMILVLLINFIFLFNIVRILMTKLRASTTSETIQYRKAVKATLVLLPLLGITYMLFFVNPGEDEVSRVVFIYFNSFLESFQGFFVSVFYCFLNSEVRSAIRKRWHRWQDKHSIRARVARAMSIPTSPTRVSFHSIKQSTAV
Procedure, shortened: as §1

| SMILES | EC50 (CRF2R) | Emax (CRF2R) | EC50 (CRF1R; CRF1R EC50) | Emax (CRF1R) |
| --- | --- | --- | --- | --- |
| CC[C@H](C)[C@H](NC(=O)[C@H](CCCNC(=N)N)NC(=O)[C@H](C)NC(=O)[C@H](CC(C)C)NC(=O)[C@H](CC(C)C)NC(=O)[C@H](CCCNC(=N)N)NC(=O)[C@H](C)NC(=O)[C@H](CC(N)=O)NC(=O)[C@H](CC(N)=O)NC(=O)[C@H](C)NC(=O)[C@H](C)NC(=O)[C@H](CCC(N)=O)NC(=O)[C@H](CCC(N)=O)NC(=O)[C@H](CCCCN)NC(=O)[C@H](CCC(=O)O)NC(=O)[C@H](CCCCN)NC(=O)[C@H](CCC(=O)O)NC(=O)[C@H](CCC(N)=O)NC(=O)[C@H](CCCCN)NC(=O)[C@H](CCC(=O)O)NC(=O)[C@@H](NC(=O)[C@H](CCC(=O)O)NC(=O)[C@@H](NC(=O)[C@H](CCSC)NC(=O)[C@H](CCCCN)NC(=O)[C@H](CCCNC(=N)N)NC(=O)[C@H](CC(C)C)NC(=O)[C@H](CC(C)C)NC(=O)[C@H](Cc1c[nH]c2ccccc12)NC(=O)[C@H](Cc1ccc(O)cc1)NC(=O)[C@@H]1CCCN1C(=O)[C@H](CC(C)C)NC(=O)[C@H](CC(=O)O)NC(=O)[C@@H](NC(=O)[C@H](CO)NC(=O)[C@@H](NC(=O)[C@@H]1CCCN1C(=O)[C@@H]1CCCN1C(=O)CNC(=O)[C@@H]1CCC(=O)N1)[C@@H](C)CC)[C@@H](C)CC)[C@@H](C)CC)[C@@H](C)CC)C(N)=O [compound 289] | 0.0122 µM | 97.3% | ≥ 1 µM | 69.5% |
| CC[C@H](C)[C@H](NC(=O)[C@H](CCCCN)NC(=O)[C@H](C)NC(=O)[C@H](CC(C)C)NC(=O)[C@H](CC(C)C)NC(=O)[C@H](CCCCN)NC(=O)[C@H](C)NC(=O)[C@H](CC(N)=O)NC(=O)[C@H](CC(N)=O)NC(=O)[C@H](C)NC(=O)[C@H](C)NC(=O)[C@H](CCC(N)=O)NC(=O)[C@H](CCC(N)=O)NC(=O)[C@H](CCCCN)NC(=O)[C@H](CCC(=O)O)NC(=O)[C@H](CCCCN)NC(=O)[C@H](CCC(=O)O)NC(=O)[C@H](CCC(N)=O)NC(=O)[C@H](CCCCN)NC(=O)[C@H](CCC(=O)O)NC(=O)[C@@H](NC(=O)[C@H](CCC(=O)O)NC(=O)[C@@H](NC(=O)[C@@H](NC(=O)[C@H](CCCCN)NC(=O)[C@H](CCCNC(=N)N)NC(=O)[C@H](CC(C)C)NC(=O)[C@H](CC(C)C)NC(=O)[C@H](CCC(N)=O)NC(=O)[C@H](Cc1ccccc1)NC(=O)[C@@H]1CCCN1C(=O)[C@H](CC(C)C)NC(=O)[C@H](CC(=O)O)NC(=O)[C@@H](NC(=O)[C@H](CO)NC(=O)[C@@H](NC(=O)[C@@H]1CCCN1C(=O)[C@@H]1CCCN1C(=O)CNC(=O)[C@@H]1CCC(=O)N1)[C@@H](C)CC)[C@@H](C)CC)C(C)C)[C@@H](C)CC)[C@@H](C)CC)C(N)=O [compound 274] | – | 100% | – | 80.9% |
| CC[C@H](C)[C@H](NC(=O)[C@@H](NC(=O)[C@H](CC(=O)O)NC(=O)[C@H](CC(C)C)NC(=O)[C@H](CC(C)C)NC(=O)[C@H](CC(C)C)NC(=O)[C@H](CCCNC(=N)N)NC(=O)[C@H](CC(N)=O)NC(=O)[C@H](CC(N)=O)NC(=O)[C@H](C)NC(=O)[C@H](C)NC(=O)[C@H](CCC(N)=O)NC(=O)[C@H](CCC(N)=O)NC(=O)[C@H](CCCCN)NC(=O)[C@H](CCC(=O)O)NC(=O)[C@H](CCCCN)NC(=O)[C@H](CCC(=O)O)NC(=O)[C@H](CCC(N)=O)NC(=O)[C@H](CCCCN)NC(=O)[C@H](CCC(=O)O)NC(=O)[C@@H](NC(=O)[C@H](CCC(=O)O)NC(=O)[C@@H](NC(=O)[C@H](CCSC)NC(=O)[C@H](CCCCN)NC(=O)[C@H](CCCNC(=N)N)NC(=O)[C@H](CC(C)C)NC(=O)[C@H](CC(C)C)NC(=O)[C@@H](NC(=O)[C@@H](NC(=O)[C@@H]1CCCN1C(=O)[C@H](CC(C)C)NC(=O)[C@H](CC(=O)O)NC(=O)[C@@H](NC(=O)[C@H](CO)NC(=O)[C@@H](NC(=O)[C@@H]1CCCN1C(=O)[C@@H]1CCCN1C(=O)CNC(=O)[C@@H]1CCC(=O)N1)[C@@H](C)CC)[C@@H](C)CC)[C@@H](C)O)[C@@H](C)O)[C@@H](C)CC)[C@@H](C)CC)[C@@H](C)O)C(N)=O [compound 42] | – | 88% | – | 10% |
| CC[C@H](C)[C@H](NC(=O)[C@@H](NC(=O)[C@H](CC(=O)O)NC(=O)[C@H](CC(C)C)NC(=O)[C@H](CC(C)C)NC(=O)[C@H](CC(C)C)NC(=O)[C@H](CCCNC(=N)N)NC(=O)[C@H](CC(N)=O)NC(=O)[C@H](CC(N)=O)NC(=O)[C@H](C)NC(=O)[C@H](C)NC(=O)[C@H](CCC(N)=O)NC(=O)[C@H](CCC(N)=O)NC(=O)[C@H](CCCCN)NC(=O)[C@H](CCC(=O)O)NC(=O)[C@H](CCCCN)NC(=O)[C@H](CCC(=O)O)NC(=O)[C@H](CCC(N)=O)NC(=O)[C@H](CCCCN)NC(=O)[C@H](CCC(=O)O)NC(=O)[C@@H](NC(=O)[C@H](CCC(=O)O)NC(=O)[C@@H](NC(=O)[C@H](CCSC)NC(=O)[C@H](CCCCN)NC(=O)[C@H](CCCNC(=N)N)NC(=O)[C@H](CC(C)C)NC(=O)[C@H](CC(C)C)NC(=O)[C@H](CC(N)=O)NC(=O)[C@@H](NC(=O)[C@@H]1CCCN1C(=O)[C@H](CC(C)C)NC(=O)[C@H](CC(=O)O)NC(=O)[C@@H](NC(=O)[C@H](CO)NC(=O)[C@@H](NC(=O)[C@@H]1CCCN1C(=O)[C@@H]1CCCN1C(=O)CNC(=O)[C@@H]1CCC(=O)N1)[C@@H](C)CC)[C@@H](C)CC)[C@@H](C)O)[C@@H](C)CC)[C@@H](C)CC)[C@@H](C)O)C(N)=O [compound 59] | – | 27% | – | 10% |
| CC[C@H](C)[C@H](NC(=O)[C@@H](NC(=O)[C@H](C)NC(=O)[C@H](CC(C)C)NC(=O)[C@H](CC(C)C)NC(=O)[C@H](CC(C)C)NC(=O)[C@H](C)NC(=O)[C@H](CC(N)=O)NC(=O)[C@H](CC(N)=O)NC(=O)[C@H](C)NC(=O)[C@H](C)NC(=O)[C@H](CCC(N)=O)NC(=O)[C@H](CCC(N)=O)NC(=O)[C@H](CCCCN)NC(=O)[C@H](CCC(=O)O)NC(=O)[C@H](CCCCN)NC(=O)[C@H](CCC(=O)O)NC(=O)[C@H](CCC(N)=O)NC(=O)[C@H](CCCCN)NC(=O)[C@H](CCC(=O)O)NC(=O)[C@@H](NC(=O)[C@H](CCC(=O)O)NC(=O)[C@@H](NC(=O)[C@H](CCSC)NC(=O)[C@H](CCCCN)NC(=O)[C@H](CCCNC(=N)N)NC(=O)[C@H](CC(C)C)NC(=O)[C@H](CC(C)C)NC(=O)[C@H](Cc1ccc(O)cc1)NC(=O)[C@H](Cc1ccccc1)NC(=O)[C@@H]1CCCN1C(=O)[C@H](CC(C)C)NC(=O)[C@H](CC(=O)O)NC(=O)[C@@H](NC(=O)[C@H](CO)NC(=O)[C@@H](NC(=O)[C@@H]1CCCN1C(=O)[C@@H]1CCCN1C(=O)CNC(=O)[C@@H]1CCC(=O)N1)[C@@H](C)CC)[C@@H](C)CC)[C@@H](C)CC)[C@@H](C)CC)[C@@H](C)O)C(N)=O [compound 231] | – | 100% | – | 100% |
